A short description of the series: binding to rat plasma.

The substance ADX-47273 displayed a plasma protein binding above 98%.

The values are drawn from PMC3539763 (ACS medicinal chemistry letters, 2010).
